Earlier results as cited in patent publication US4228124A, “Fumigating method and apparatus” (priority 1979, dated 1980).
Only a part of the results on these compounds is given; other tests are left out.

Conditions: Table 1; thermal decomposition of blowing agent; cited from earlier work

Question: With `NNc1nc(NN)nc(NN)n1` as the compound, how does the Blowing temp. read?
Answer: Its Blowing temp. is 235-290 °C.
